# Measurements published in US20050169994A1, “Carvedilol free base, salts, anhydrous forms or solvates thereof, corresponding pharmaceutical compositions, controlled release formulations, and treatment or delivery methods” (priority 2003, published 2005).
# Assay: Solubility in water at 25° C. over time, with pH of filtered solution
# Conditions: for Aqueous Solubility: Table 13, 25° C.
compound,measurement,setting,value
COc1ccccc1OCCNCC(O)COc1cccc2[nH]c3ccccc3c12 (centres unmarked) [Carvedilol],pH of solution,"Table 13, 24 hr, listed as Free Base",(pH = 7.0)
"COc1ccccc1OCCNCC(O)COc1cccc2[nH]c3ccccc3c12 (centres unmarked) [HBr salt, carvedilol hydrobromide]",pH of solution,"Table 13, 1 hr",6.1
same,pH of solution,"Table 13, 4 hr",6.3
same,pH of solution,"Table 13, 24 hr, hydrobromide",6.2
"COc1ccccc1OCCNCC(O)COc1cccc2[nH]c3ccccc3c12.O=P(O)(O)O (centres unmarked) [Phosphate salt, Carvedilol dihydrogen phosphate]",Aqueous Solubility,1 hr,2.35 mg of Carvedilol free base/mL of solution
same,Aqueous Solubility,4 hr,2.25 mg of Carvedilol free base/mL of solution
same,Aqueous Solubility,24 hr,2.21 mg of Carvedilol free base/mL of solution
same,pH of solution,"Table 13, 1 hr",3.0
same,pH of solution,"Table 13, 4 hr",3.0
same,pH of solution,"Table 13, 24 hr",3.0
Carvedilol Monocitrate Monohydrate [Carvedilol Mono-Citrate Salt],pH of filtered solution,"Table 11, 48 hr",3.0

# Structures can show the parent of a compound that is named as a salt.
